Antibody variant affinities, Ab-14 heavy chain, assay B

From the AlphaSeq antibody data of Li et al. 2023 (doi:10.1038/s41467-023-39022-2), copy in the FLAb collection.

The target is the same throughout: PDVDLGDISGINAS, from the HR2 region of SARS-CoV-2 spike.

Parent scFv Ab-14: VH joined to VL by three GGGGS repeats. Changes lie in the heavy chain CDRs alone.
VH: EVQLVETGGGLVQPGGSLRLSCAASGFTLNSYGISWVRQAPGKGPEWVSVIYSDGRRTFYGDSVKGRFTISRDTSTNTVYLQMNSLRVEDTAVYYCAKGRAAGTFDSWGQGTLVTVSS
VL: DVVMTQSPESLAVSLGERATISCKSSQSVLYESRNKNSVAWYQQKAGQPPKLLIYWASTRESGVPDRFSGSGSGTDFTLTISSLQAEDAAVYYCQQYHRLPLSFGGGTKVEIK

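The starting antibody came from a phage panning campaign against this peptide. The variants were designed computationally from a first round of random CDR variants and then made and measured. Group labels follow the data file (Ctrl: baseline library sampled from a position-specific scoring matrix, with some repeated check sequences; Rand: our label for a block that the file lists under HC and that is probably the random mutants of the ten best first-round binders; GP: Gaussian process model; GPLM: also part of the Gaussian process libraries; HC: hill climbing; Gen: genetic algorithm; Gibbs: Gibbs sampling; a sequence that several methods proposed may carry one label only). The assay is AlphaSeq: two haploid yeast populations carry antibody and antigen on their surface. After mating in shaken culture at 30 °C for 16 h, diploids were selected and their barcode pairs sequenced. The ratio of observed to expected reads was calibrated, replicate by replicate, on BCL2-family standards whose Kd was known from biolayer interferometry. Each pool was mated in six replicate cultures.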

The parent's heavy chain CDRs are GFTLNSYGIS, VIYSDGRRTFYGDSVK, GRAAGTFDS; each variant's own CDRs replace them letter for letter.
Variants here have at most six changes.
Values are apparent Kd, the geometric mean of the replicates that gave a signal; lower means stronger binding.
Where no diploid with the target was found in any replicate, the entry reads "nd": below detection, most likely a poor binder, though not proof of it.
As a blank, each scFv also met three strains without target: over all heavy chain designs, 1% of these pairings were detected, typically at 120 nM and seldom below 7.0 nM. The control count says in how many pairings with the empty strains this scFv gave a signal.
In the paper, a design with two or fewer of six values counts as a poor binder.
The parent sequence was in this pool as ten entries: three were never detected, three once, and four in most replicates, with averages from 2.2 nM to 240 nM.
A sequence measured in both rounds can read differently, since the two assays cover different ranges.

Variant GFDLNSYGIS, VIYSDGRRTFYGDNVK, GKNAGTFDS [GP_Gen] showed 1.3 nM (6 of 6 replicates; controls 0 of 18).
Variant GGTLNSTGIS, VIYSDGRRTFASDSVK, GAAGGTFDS [Rand] showed nd (0 of 6 replicates; controls 0 of 18).
Variant GFSLNEYGIS, VIYSDGRRTFYGDSVK, GQTAGTFDS [GPLM_Gen] showed 420 pM (6 of 6 replicates; controls 1 of 18).
Variant GFSLNSYGIS, VIYSDGRRTFYGDSVK, GQTAGTFDN [GPLM_Gen] showed 900 pM (6 of 6 replicates; controls 0 of 18).
Variant GFDLNSYGIS, VIYSDGRRTFYQDAVK, GRTAGTFDS [GP_Gen] showed 2.4 nM (6 of 6 replicates; controls 0 of 18).
Variant GFDLNSYGIS, VIYSDGRRTFYVDSVK, GNAAGTFDL [GP_Gibbs] showed 1.1 nM (6 of 6 replicates; controls 0 of 18).
Variant GFTLGSYGIS, VIYSDGRRTFYDDSVK, GRAAGTGDS [Ctrl] showed nd (0 of 6 replicates; controls 1 of 18).
Variant GFSLNWYGIS, VIYSDGRRTFYGDQVK, GRTAGTFDS [GP_Gibbs] showed 230 nM (1 of 6 replicates; controls 0 of 18).
Variant GFTLNSYGIS, VIYSDGRRTFYADSVK, GRAAGTFDT [GPLM_Gen] showed 15 nM (6 of 6 replicates; controls 0 of 18).
Variant GFWLNDYGIS, VIYSDGRRTHYIDSVK, GRAAGTFDS [GP_HC] showed 10 nM (5 of 6 replicates; controls 0 of 18).
Variant GFTLNSYGIS, VIYSDGQRTFYADSVK, GRQAGTFDS [GPLM_Gibbs] showed 4.6 nM (6 of 6 replicates; controls 0 of 18).
Variant GFKLNSYGIS, VIYSDGRRTFYTDSVK, GQLAGTFDS [GP_HC] showed 1.3 nM (6 of 6 replicates; controls 1 of 18).
Variant GFTLQSYGIS, VIYSDGRRTMYGDSVK, GRAAGTFDS [Ctrl] showed 48 nM (1 of 6 replicates; controls 2 of 18).
Variant GFTINSYGIS, VIYSDGRRTFYTDSVK, GTAHGTFDS [Ctrl] showed nd (0 of 6 replicates; controls 0 of 18).
Variant GFSLNEYGIS, VIYSDGRRTFYGDSVK, GMTAGTFDS [GPLM_Gen] showed 490 pM (6 of 6 replicates; controls 0 of 18).
Variant GFSLNNYGIS, VIYSDGRRTFYGDSVK, GNAAGTFDS [GPLM_Gen] showed 1.1 nM (6 of 6 replicates; controls 0 of 18).
Variant GFSLNGYGIS, VIYSDGRRTAYGDSVK, GRAAGTFDS [GP_Gibbs] showed 2.0 nM (4 of 6 replicates; controls 0 of 18).
Variant GFTLNDYGIS, VIYKDGRRTFYGDSVK, GRAALTFIS [Rand] showed nd (0 of 6 replicates; controls 0 of 18).
Variant GFSLNSYGIS, VIYADGRRTFYGDRVK, GEAAGTFDK [GP_Gibbs] showed 440 pM (6 of 6 replicates; controls 0 of 18).
Variant GFSLNSYGIS, VIYSDGRRTFYSDSVK, GQAAGTFDK [GPLM_Gen] showed 2.5 nM (6 of 6 replicates; controls 1 of 18).
Variant GFKLNSYGIS, VIYSDGRRTFYADSVK, GKAAGTFDS [GPLM_Gen] showed 32 nM (5 of 6 replicates; controls 0 of 18).
Variant GFTLNSYGIS, VIYSDGSRTAYGDSVK, GREAGTFPS [Ctrl] showed 260 nM (1 of 6 replicates; controls 2 of 18).
Variant GFTLNDYGIS, VIYSDGRRTHYMDSVK, GRAAGTFDS [GP_HC] showed 64 nM (6 of 6 replicates; controls 1 of 18).
Variant GFTLNSYGIS, VIYSDGRRTFYGDSVK, GDEAGTFDT [GP_Gibbs] showed 3.4 nM (6 of 6 replicates; controls 1 of 18).
Variant GFELNEYGIS, VIYSDGRRTFYHDSVK, GRAAGTFDS [GP_Gen] showed 2.3 nM (6 of 6 replicates; controls 0 of 18).
Variant GFELNSYGIS, VIYADGRRTFYGDSVK, GQAAGTFDG [GP_Gen] showed 1.8 nM (2 of 6 replicates; controls 0 of 18).
Variant GFTINSYGIS, VIYSDGRRTFYGDAVK, GRADGTFDS [Ctrl] showed nd (0 of 6 replicates; controls 0 of 18).
Variant GFSLNSYGIS, VIYSDGRRTFYQDKVK, GRAAGTFDS [Ctrl] showed 14 nM (4 of 6 replicates; controls 0 of 18).
Variant GFTLNEYGIS, VIYSDGRRTYYGDSVK, GRAAGTFIS [GP_HC] showed nd (0 of 6 replicates; controls 0 of 18).
Variant GFTLNSYGIS, VIYSDGRRTMYGDSVK, GRCAGTFDS [Ctrl] showed 41 nM (1 of 6 replicates; controls 0 of 18).
Variant GFTLNSYGIS, VIYADGRRTFYGDSVK, GRAAGTFKM [GPLM_HC] showed 1.5 nM (6 of 6 replicates; controls 0 of 18).
Variant EFDLNSYGIS, VIYSDGRRTFYADSVK, GRTAGTFDS [GP_Gen] showed 3.4 nM (6 of 6 replicates; controls 0 of 18).
Variant GFELNDYGIS, VIYSDGRRTFYGDSVK, GQAAGTFDL [GP_Gibbs] showed 3.8 nM (6 of 6 replicates; controls 1 of 18).
Variant GFELNSYGIS, VIYSDGRRTFYADSVK, GRTAGTFDK [GP_Gen] showed 52 nM (6 of 6 replicates; controls 0 of 18).
Variant GFALNEYGIS, VIYSDGRRTFYGDSVK, GQAAGTFDL [GPLM_Gen] showed 17 nM (4 of 6 replicates; controls 0 of 18).
Variant GFDLNSYGIS, VIYSDGRRTFYGDSVK, GRTAGSFNS [GPLM_HC] showed 610 nM (5 of 6 replicates; controls 0 of 18).
Variant GFGLNSYGIS, VIYADGRRTFYGDSVK, GKAAGTFDS [GPLM_Gen] showed 690 pM (6 of 6 replicates; controls 0 of 18).
Variant GFPLNEYGIS, VIYADGRRTFYGDSVK, GMAAGTFDS [GP_HC] showed 1.3 nM (6 of 6 replicates; controls 0 of 18).
Variant GFTLNSYGIS, VIYSDGRRTFYSDSVK, GRALGTFDV [Ctrl] showed nd (0 of 6 replicates; controls 0 of 18).
Variant GFSLNSYGIS, VIYSDGRRTFYGDKVK, GLNAGTFDS [GP_Gibbs] showed 15 nM (6 of 6 replicates; controls 0 of 18).
Variant GFTLNSFGIS, VIYSDGRRTFYGDSVK, GRAAGTYDS [Ctrl] showed 22 nM (2 of 6 replicates; controls 1 of 18).
Variant GNTLNEYGIS, VIYSDGRRTFYTDSVK, GRMAGTFDS [GP_HC] showed 2.2 nM (6 of 6 replicates; controls 0 of 18).
Variant GFNLNSYGIS, VIYSDGRRTFYTDSVK, GEAAGTFDS [GPLM_Gen] showed 96 nM (5 of 6 replicates; controls 0 of 18).